Laboratory results as given in EP1611112B1, “ISOXAZOLE COMPOUNDS AS INHIBITORS OF HEAT SHOCK PROTEINS” (Vernalis (Cambridge) Limited, priority 2003, dated 2004).

The chains behind the UniProt entries cited, without tags or fusion partners.
UniProt P08238, whole entry: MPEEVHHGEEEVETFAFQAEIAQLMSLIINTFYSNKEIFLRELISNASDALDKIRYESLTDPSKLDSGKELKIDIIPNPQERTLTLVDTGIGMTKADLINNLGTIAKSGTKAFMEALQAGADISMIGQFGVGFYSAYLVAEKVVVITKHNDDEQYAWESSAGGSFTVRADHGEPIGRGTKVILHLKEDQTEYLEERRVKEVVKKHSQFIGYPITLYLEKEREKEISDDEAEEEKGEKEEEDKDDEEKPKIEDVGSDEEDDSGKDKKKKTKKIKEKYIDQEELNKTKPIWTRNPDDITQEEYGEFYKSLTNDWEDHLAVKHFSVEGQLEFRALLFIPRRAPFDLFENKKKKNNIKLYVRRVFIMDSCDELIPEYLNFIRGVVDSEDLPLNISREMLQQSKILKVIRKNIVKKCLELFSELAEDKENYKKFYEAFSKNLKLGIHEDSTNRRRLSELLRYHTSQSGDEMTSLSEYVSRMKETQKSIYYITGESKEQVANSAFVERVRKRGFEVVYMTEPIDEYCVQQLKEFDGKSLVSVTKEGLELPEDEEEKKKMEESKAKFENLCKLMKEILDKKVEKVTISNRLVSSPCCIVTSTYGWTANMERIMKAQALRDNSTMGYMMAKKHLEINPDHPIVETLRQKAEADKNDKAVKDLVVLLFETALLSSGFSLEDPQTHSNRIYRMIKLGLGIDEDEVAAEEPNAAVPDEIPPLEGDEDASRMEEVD

Molecular target: T1, human full-length HSP90 (Homo sapiens, UniProt P08238)
T1 construct: E. coli expressed human full-length HSP90 protein; made in house; host or cells: E. coli
Assay: Fluorescence Polarisation Assay (displacement of fluorescein-labelled probe RBT0045864-FAM)
Format: binding
Conditions: activity range
Excerpt: A Fluorescence Polarization_assay was also employed for the evaluation of some of the compounds of the Examples:
Fluorescence polarization {also known as fluorescence anisotropy} measures the rotation of a fluorescing species in solution, where the larger molecule the more polarized the fluorescence emission.
When the fluorophore is excited with polarized light, the emitted light is also polarized. The molecular size is proportional to the polarization of the fluorescence emission.
Test compound is added to the assay plate, left to equilibrate and the anisotropy measured again. Any change in anisotropy is due to competitive binding of compound to HSP90, thereby releasing probe.
Stored at room temperature. • 3) BSA (bovine serum albumen) 10 mg/ml (New England Biolabs # B9001S) • 4) 20 mM probe in 100 % DMSO stock concentration. Stored in the dark at RT. Working concentration is 200 nM diluted in AR water and stored at 4 °C.
1) Add 100µl 1x buffer to wells 11A and 12A (=FP BLNK) 2) Prepare assay mix - all reagents are kept on ice with a lid on the bucket as the probe is light-sensitive.
This gives 2.5 mM {50x} stock cpd - assuming cpds 20 mM. • 4) Repeat for wells A2 to A10. […] Add 2 µl of 100mM standard cpd to wells B12 - H12 {is positive control } • 13)The Z' factor is calculated from zero controls and positive wells.

**Q.** `CCNCc1noc(-c2cc(Cl)c(OCc3ccccc3)cc2OCc2ccccc2)c1-c1cccc(Cl)c1` [Example 39] was tested. Which pIC50 did it give?
**A.** > 5.00

pIC50: −log10 of the molar value.
